Measurements taken from patent US20210393645A1, “TREATMENT FOR PROGRESSIVE MULTIPLE SCLEROSIS” (UTI LIMITED PARTNERSHIP, priority 2016, published 2021).

system: human neurons; test: Iron (FeSO4) mediated neurotoxicity screening, MAP-2 positive neurons counted; conditions: Neuron, 24 h, read-out: Drug % control (mean): number of neurons normalized to untreated control

Going from `CN(C)CCC=C1c2ccccc2C=Cc2ccccc21` to `CNCCC=C1c2ccccc2CCc2ccccc21` [NORTRIPTYLINE], the viability at 10 µM falls from 98.4% to 18.2%.

Compared with `OC(CCN1CCCCC1)(c1ccccc1)C1CCCCC1` (stereo not shown), `COC(=O)[C@H](c1ccccc1Cl)N1CCc2sccc2C1` [CLOPIDOGREL SULFATE] is higher in viability at 10 µM: 30.6% for the first, 53.5% for the second.

Going from `NC(N)=Nc1nc(CSCCC(N)=NS(N)(=O)=O)cs1` [FAMOTIDINE] to `CN1C(C(=O)Nc2ccccn2)=C(O)c2sccc2S1(=O)=O` [TENOXICAM], the viability at 10 µM rises from 25.2% to 25.9%.

For `COc1cc(Cc2cnc(N)nc2N)cc(OC)c1OC` [TRIMETHOPRIM], the viability at 10 µM was 14%.

Where a name gives a salt, the structure may show the parent alone.
